The list shows a part of the results, in another mix than the full data. Inconclusive results are not listed. Active and inactive are the calls of the source. Cut-off read from the data, not from the text of the source: active = max dye-equivalent concentration above about 10 nM; inconclusive = mostly about 1.1 nM to 9.6 nM; inactive = weaker than that.
Experiment: qHTS Assay for Spectroscopic Profiling in 4-MU Spectral Region
Conditions: compound autofluorescence, 340/450 nm, 4-MU equivalents
Source text: NIH Molecular Libraries Screening Centers Network [MLSCN] NIH Chemical Genomics Center [NCGC] […] Occasionally, the artifactual effect may originate from the compounds own spectral or other biophysical properties which generally tend to track its assay concentration. Pre-screening/profiling the library with respect to the compounds spectral properties should help one exclude false positives early on. While the most informative fluorescent profiling data set is obtained by performing a full excitation and emission scan of each well by using a monochromator-based plate reader, such an approach is practical only on a very limited scale as scanning each well requires long time. An alternative approach, applied here, is to perform plate reader scans using selected excitation and emission wavelength pairs to generate a multidimensional relational database that correlates compound concentration and the respective relative fluorescence intensity at a given wavelength set. A standard curve of 4-methylumbelliferone (4-MU) present on each plate as six-point concentration series, was used to compute a normalized fluorescence response, termed dye-equivalent concentration, for each compound at each concentration.
NCGC Assay Protocol Summary: Buffer: 100 mM Tris buffer, pH 8.0 Dye standard plate: The wells in columns 1 through 4 of a Kalypsys polypropylene 1536-well compound plate were filled with standard solutions of fluorophore corresponding to the spectral region of interest. Solutions of 4-MU were placed in the following wells: A1, B1: 3 mM, A2, B2: 300 uM, A3, B3: 30 uM, A4, B4: zero (DMSO), C1, D1: 3 uM, C2, D2: 900 nM, C3, D3: 300 nM, C4, D4: zero (DMSO). Assay Steps: Six uL of buffer were dispensed to 1536-well Greiner black plates. Compounds and dye standards (23 nL) were transferred via Kalypsys PinTool. The plates were incubated for 15 min at room temperature, and then read on ViewLux (Perkin-Elmer) High-throughput CCD imager using 340 nm and 450 nm excitation and emission filter set. Keywords: NIH Roadmap, MLSCN, MLI, MLSMR, qHTS, NCGC, Fluorescent Profiling, 4MU, 4-MU
For `CCOc1ncccc1C(=O)NCC1(N2CCOCC2)CCCCC1`, the outcome was “inactive”. In the case of `O=C(O)C1(Nc2ccccc2)CCN(Cc2ccccc2)CC1`, the outcome was “inactive”. With `CCC(CO)(C(=O)OC1CN2CCC1CC2)c1ccccc1` (stereo unspecified) the outcome was “inactive”. For `N/C(=N\O)c1c(N)no[n+]1[O-]`, the outcome was “inactive”. For `N#CC1(Nc2ccccc2)CCN(CCc2ccccc2)CC1`, the outcome was “inactive”. In the case of `O=C(OC1CN2CCC1CC2)C1c2ccccc2Oc2ccccc21` (stereo unspecified), the outcome was “inactive”.

Reference: PubChem BioAssay AID589 (National Center for Advancing Translational Sciences (NCATS), 2007)
